Legend:
[1] = human liver microsomes
[2] = CD-1 mouse liver microsomes

For O=C(O)Cc1ccccc1Nc1c(Cl)cccc1Cl [Diclofenac], the T1/2 [1] was 4.5 min and the “CLint(liver)” value [2] was 5.18 L/h/kg.

Source: patent US20230128137A1, “BENZO FIVE-MEMBERED CYCLIC COMPOUND” (MEDSHINE DISCOVERY INC., priority 2020, published 2023)
